Literature values as cited in patent EP4778540A1, “ANTIBODY-DRUG CONJUGATE CONTAINING HETEROCYCLIC COMPOUND HAVING ACTIVITY OF INDUCING DECOMPOSITION OF G12D MUTANT KRAS PROTEIN” (Astellas Pharma Inc., priority 2023, dated 2025).

Amino acid sequences for entries named in this document (tags omitted). Residues count along the entry.
UniProt P01116, 1-188 isoform 2 G12D: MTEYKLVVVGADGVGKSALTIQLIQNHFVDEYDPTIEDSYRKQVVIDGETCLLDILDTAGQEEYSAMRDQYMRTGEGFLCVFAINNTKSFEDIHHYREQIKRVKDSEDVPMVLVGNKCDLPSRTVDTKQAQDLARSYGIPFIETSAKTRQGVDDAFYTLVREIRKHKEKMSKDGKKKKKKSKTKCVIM

Molecular target: mutant RAS G12D protein (Homo sapiens, UniProt P01116, G12D)
Conditions: human G12D mutant KRAS-positive pancreatic cancer line AsPC-1; DC50 of D10 calculated from a molecular weight in terms of 4 hydrochloride; cited from earlier work

Q: For `CCn1nccc1-c1ccc([C@H](CO)NC(=O)[C@@H]2C[C@@H](O)CN2C(=O)[C@H](C(C)C)n2cc(-c3ccc(COc4c(-c5c(C)c(F)cc6[nH]ncc56)c(C5CC5)cc5c(N(C)[C@H]6CCNC6)nc(OC[C@H](C)OC)nc45)cc3)nn2)cc1`, which DC50 is on record?
A: 10 nM
